{"sequences": {"note": "Protein sequences, listed by entry. Tags and fused reporters are not part of them. Lines headed by an entry give the natural chain unless they say otherwise; changes in a name come on top.", "UniProt O75469": "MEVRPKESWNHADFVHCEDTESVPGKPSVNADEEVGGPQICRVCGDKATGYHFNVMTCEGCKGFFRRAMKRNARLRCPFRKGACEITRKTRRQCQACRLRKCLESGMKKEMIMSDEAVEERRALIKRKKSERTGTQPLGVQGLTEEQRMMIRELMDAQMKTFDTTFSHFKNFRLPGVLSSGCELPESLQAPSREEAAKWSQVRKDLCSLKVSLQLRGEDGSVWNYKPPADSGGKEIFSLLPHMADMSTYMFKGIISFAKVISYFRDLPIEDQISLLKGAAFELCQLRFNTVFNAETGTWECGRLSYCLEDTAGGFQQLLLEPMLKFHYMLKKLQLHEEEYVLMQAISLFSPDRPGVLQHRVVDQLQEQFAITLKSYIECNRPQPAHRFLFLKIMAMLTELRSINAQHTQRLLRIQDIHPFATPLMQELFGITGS"}, "source": "patent US7785879B1", "about": "“Pregnane X receptor compositions, crystals and uses thereof” (Schering Corporation, priority 2005, dated 2010)", "molecular_target": "T1, PXR-LBD-L10-SRC (Homo sapiens, UniProt O75469)", "T1 sequence (O75469 with tags, fused parts or gaps)": "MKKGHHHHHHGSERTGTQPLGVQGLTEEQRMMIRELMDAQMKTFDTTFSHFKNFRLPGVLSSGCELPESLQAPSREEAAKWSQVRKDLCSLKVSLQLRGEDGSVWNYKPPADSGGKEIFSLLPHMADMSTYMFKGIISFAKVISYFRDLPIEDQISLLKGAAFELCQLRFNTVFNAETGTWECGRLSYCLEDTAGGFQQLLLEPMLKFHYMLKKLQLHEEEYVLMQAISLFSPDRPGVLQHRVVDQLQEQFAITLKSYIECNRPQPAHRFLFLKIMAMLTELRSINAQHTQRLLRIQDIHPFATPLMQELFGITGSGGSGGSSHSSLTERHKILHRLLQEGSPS", "test": "Temperature-dependent circular dichroism, stabilization of PXR-LBD-L10-SRC", "conditions": "25 uM compound, vs PXR-LBD-L10-SRC apo enzyme", "method": "The CD is a function of wavelength.\nPXR-LBD-L10-SRC was expressed and purified essentially as set forth above. […] Stabilization of PXR-LBD-L10-SRC in the presence of various substances was measured by temperature-dependent circular dichroism. PXR-LBD-L10-SRC was assayed under the following conditions:\nBuffer: 25 mM Hepes, pH 7.9, 150 mM NaCl, 5% glycerol, 10 mM BME,\nheating ramp at 2° C./min\ntemperature range: 30-80° C.", "data": [{"substance": "Hyperforin", "values": [{"measurement": "ΔTm", "result": 6.8, "unit": "C"}]}]}
